Test results: patent publication US20090304746A1 (priority 1993, published 2009)
Read-outs that look alike come from different tables or passages of the source.

Protein sequences, listed by entry. Tags and fused reporters are not part of them. Lines headed by an entry give the natural chain unless they say otherwise; changes in a name come on top. Residues count along the entry.
UniProt P01889, 25-362: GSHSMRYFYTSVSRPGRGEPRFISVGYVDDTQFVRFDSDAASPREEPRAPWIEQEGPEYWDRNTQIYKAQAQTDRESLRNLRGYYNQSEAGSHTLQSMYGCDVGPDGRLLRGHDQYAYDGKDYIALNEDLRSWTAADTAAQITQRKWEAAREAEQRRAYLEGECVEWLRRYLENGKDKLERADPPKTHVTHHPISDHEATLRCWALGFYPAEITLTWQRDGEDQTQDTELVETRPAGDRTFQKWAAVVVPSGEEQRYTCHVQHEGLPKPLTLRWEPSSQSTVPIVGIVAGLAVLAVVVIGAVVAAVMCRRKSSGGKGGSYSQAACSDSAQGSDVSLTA

Experiments:
[1] = target: HLA-B51; experiment: HLA class I binding assay, B51; parameters: species or system human
[2] = tested on: A3-supertype molecules (A*03, A*11, A*3101, A*3301, A*6801); experiment: A3-supertype cross-reactive binding, five molecules; parameters: species or system human; conditions: number of A3-supertype molecules bound (cross-reactivity)
[3] = tested on: HLA-A11/K^b transgenic mice; experiment: CTL induction in HLA-A11/K^b transgenic mice after peptide immunization; format: in vivo, mouse
[4] = target: T1, HLA-B*0702 (Homo sapiens, UniProt P01889); experiment: HLA class I binding assay, B*0702
T1 construct: endogenous in cells; host or cells: GM3107

[5] = target: HLA-B*5401 (Homo sapiens, UniProt P01889, A329T/C349S/D138N/D201E/E176V/E187T/E204Q/E69G/I76V/K202T/L119W/R155S/R180L/S121T/S35A/S48A/V127L/V306I/V36M/Y140L); experiment: HLA class I binding assay, B*5401
[6] = target: HLA-B*3501 (Homo sapiens, UniProt P01889, A329T/A93T/A95T/C349S/D201E/D98Y/E176V/E187L/E204Q/E69T/I218V/K202T/L119I/Q94N/R155S/R180L/S121R/S35A/S48A/T118I/V127L/V306I/V36M/Y140S/Y91F); experiment: HLA class I binding assay, B*3501
[7] = target: HLA-B*5301 (Homo sapiens, UniProt P01889, A329T/A93T/A95T/C349S/D201E/D98Y/E176V/E187L/E204Q/E69T/G107R/I218V/K202T/L105A/L119I/N104I/Q94N/R106L/R155S/R180L/S101N/S121R/S35A/S48A/T118I/V127L/V306I/V36M/Y140S/Y91F); experiment: HLA class I binding assay, B*5301
[8] = A3 supermotif peptides, spread in brackets
[9] = HLA-A11/K^b transgenic mice, average magnitude (standard deviation) in positive animals
[10] = HLA-A11/K^b transgenic mice, positive responses over total number of mice examined

For `CSCC[C@H](NC(=O)[C@H](CC(C)C)NC(=O)[C@H](CO)NC(=O)[C@H](C)NC(=O)[C@H](CC(C)C)NC(=O)[C@H](C)NC(=O)[C@@H]1CCCN1C(=O)[C@@H](N)CC(N)=O)C(=O)N[C@@H](C)C(=O)N[C@@H](Cc1ccccc1)C(=O)O`, the IC50 [1] was 5000 nM.
`CC[C@H](C)[C@H](NC(=O)[C@@H](N)CC(C)C)C(=O)N[C@@H](Cc1ccccc1)C(=O)N[C@@H](CS)C(=O)N[C@@H](Cc1c[nH]cn1)C(=O)N[C@@H](CO)C(=O)N[C@@H](CCCCN)C(=O)N[C@@H](CCCCN)C(=O)N[C@@H](CCCCN)C(=O)O` [Peptide 1.0123] was tested, and the “A3 XRN” value [2] was 3, the “Immunogenicity Transgenic mice, Frequency” value ([3]; A3 supermotif peptides) was 3/6 and the “Immunogenicity Transgenic mice, Response” value [3, 8] was 4.4 (1.1). For the same molecule, the “Immunogenicity Transgenic mice, Response” value [3, 9] was 4.4 (1.1) lytic units and the “Immunogenicity Transgenic mice, Frequency” value [3, 10] was 3/6.
In the case of `C[C@@H](O)[C@H](NC(=O)[C@@H](N)CCCCN)C(=O)N[C@@H](CO)C(=O)N[C@@H](CCC(=O)O)C(=O)N[C@@H](CCCNC(=N)N)C(=O)N[C@@H](CO)C(=O)N[C@@H](CCC(N)=O)C(=O)N1CCC[C@H]1C(=O)N[C@@H](CCCNC(=N)N)C(=O)O` [Peptide 1.0952], the “A3 XRN” value [2] was 4.
For `CC[C@H](C)[C@H](NC(=O)[C@@H]1CCCN1C(=O)[C@H](CCC(N)=O)NC(=O)[C@H](CCCNC(=N)N)NC(=O)[C@H](CCCNC(=N)N)NC(=O)CNC(=O)[C@H](CCCNC(=N)N)NC(=O)[C@@H]1CCCN1C(=O)[C@@H](N)CCC(N)=O)C(=O)O` [Peptide 15.0039], the IC50 [1] was > 30000 nM.
Work on `CC(C)C[C@H](NC(=O)[C@@H](NC(=O)[C@@H](NC(=O)[C@H](Cc1ccccc1)NC(=O)[C@H](CO)NC(=O)[C@H](CS)NC(=O)[C@@H]1CCCN1C(=O)[C@@H](N)CC(C)C)[C@@H](C)O)[C@@H](C)O)C(=O)N1CCC[C@H]1C(=O)N[C@@H](C)C(=O)O` [Peptide 16.0187] yielded an IC50 [1] of 9170 nM.
With `CC(C)C[C@H](NC(=O)[C@H](C)NC(=O)CNC(=O)[C@H](C)NC(=O)[C@@H](N)C(C)C)C(=O)N[C@H](C(=O)N[C@@H](C)C(=O)N[C@@H](Cc1ccccc1)C(=O)N[C@@H](CCCCN)C(=O)O)C(C)C` [Peptide 24.0090] the “A3 XRN” value [2] was 3, the “Immunogenicity Transgenic mice, Frequency” value ([3]; A3 supermotif peptides) was 1/6 and the “Immunogenicity Transgenic mice, Response” value [3, 8] was 7.1. The “Immunogenicity Transgenic mice, Response” value [3, 9] was 7.1 lytic units and the “Immunogenicity Transgenic mice, Frequency” value [3, 10] was 1/6.
For `C[C@H](N)C(=O)N[C@@H](C)C(=O)N[C@@H](CS)C(=O)N[C@@H](CC(N)=O)C(=O)N[C@@H](Cc1c[nH]c2ccccc12)C(=O)N[C@H](C(=O)N[C@@H](CCCNC(=N)N)C(=O)NCC(=O)N[C@@H](CCC(=O)O)C(=O)N[C@@H](CCCNC(=N)N)C(=O)O)[C@@H](C)O` [Peptide 24.0103], the “A3 XRN” value [2] was 2.
For `CC[C@H](C)[C@H](NC(=O)[C@@H]1CCCN1C(=O)[C@@H](N)CC(C)C)C(=O)N[C@@H](CC(N)=O)C(=O)N[C@@H](C)C(=O)N[C@@H](CC(C)C)C(=O)N[C@@H](CO)C(=O)N[C@@H](CC(N)=O)C(=O)N[C@@H](CO)C(=O)N[C@@H](CC(C)C)C(=O)O` [Peptide 29.0085], the IC50 [1] was 1170 nM.
`CC(C)C[C@H](NC(=O)[C@H](C)NC(=O)CNC(=O)[C@H](C)NC(=O)[C@@H](NC(=O)CN)C(C)C)C(=O)N[C@H](C(=O)N[C@@H](C)C(=O)N[C@@H](Cc1ccccc1)C(=O)N[C@@H](CCCCN)C(=O)O)C(C)C` [Peptide 1073.10] was tested, and the “A3 XRN” value [2] was 3.
`CC(C)C[C@H](NC(=O)[C@@H](N)CCCNC(=N)N)C(=O)NCC(=O)N[C@H](C(=O)N[C@@H](CCCNC(=N)N)C(=O)N[C@@H](C)C(=O)N[C@H](C(=O)N[C@@H](CCCNC(=N)N)C(=O)N[C@@H](CCCCN)C(=O)O)[C@@H](C)O)C(C)C` [Peptide 1073.11] was tested, and the “Immunogenicity Transgenic mice, Frequency” value ([3]; A3 supermotif peptides) was 3/6, the “Immunogenicity Transgenic mice, Response” value [3, 8] was 42.2 (1.2) and the “Immunogenicity Transgenic mice, Response” value [3, 9] was 42.2 (1.2) lytic units. The “Immunogenicity Transgenic mice, Frequency” value [3, 10] was 3/6.
In the case of `CSCC[C@H](NC(=O)[C@H](Cc1ccc(O)cc1)NC(=O)[C@H](C)NC(=O)CNC(=O)[C@H](Cc1ccccc1)NC(=O)CNC(=O)[C@H](CC(C)C)NC(=O)[C@@H](N)[C@@H](C)O)C(=O)N[C@@H](CO)C(=O)N[C@@H](CCCCN)C(=O)O` [Peptide 1073.14], the “A3 XRN” value [2] was 2.
With `CC(C)C[C@H](NC(=O)[C@@H](N)Cc1c[nH]cn1)C(=O)N[C@@H](Cc1c[nH]cn1)C(=O)N[C@@H](C)C(=O)N1CCC[C@H]1C(=O)N[C@H](C(=O)NCC(=O)N[C@@H](CO)C(=O)NCC(=O)N[C@@H](CCCCN)C(=O)O)[C@@H](C)O` [Peptide 1073.16] the “A3 XRN” value [2] was 1.
For `CC(C)[C@H](NC(=O)CNC(=O)[C@H](CCCNC(=N)N)NC(=O)[C@@H](NC(=O)[C@H](CS)NC(=O)[C@@H](NC(=O)[C@H](C)N)C(C)C)[C@@H](C)O)C(=O)N[C@@H](C)C(=O)N[C@@H](CCCCN)C(=O)O` [Peptide 1090.23], the “A3 XRN” value [2] was 2.
In the case of `CC(C)[C@H](NC(=O)[C@H](CS)NC(=O)[C@H](Cc1ccccc1)NC(=O)[C@@H](NC(=O)[C@@H](N)CCC(=O)O)C(C)C)C(=O)N[C@@H](CCC(N)=O)C(=O)N1CCC[C@H]1C(=O)N[C@@H](CCC(=O)O)C(=O)N[C@@H](CCCCN)C(=O)O` [Peptide 1090.24], the “A3 XRN” value [2] was 2.
`CSCC[C@H](NC(=O)[C@@H](N)Cc1c[nH]c2ccccc12)C(=O)N[C@@H](CC(N)=O)C(=O)N[C@@H](CO)C(=O)N[C@H](C(=O)NCC(=O)N[C@@H](Cc1ccccc1)C(=O)N[C@H](C(=O)N[C@@H](CCCCN)C(=O)O)[C@@H](C)O)[C@@H](C)O` [Peptide 1174.16] was tested, and the “A3 XRN” value [2] was 2.
`CC(C)C[C@H](NC(=O)[C@@H]1CCCN1C(=O)[C@H](CS)NC(=O)CNC(=O)[C@H](Cc1c[nH]cn1)NC(=O)[C@@H](NC(=O)[C@@H](NC(=O)[C@@H]1CCCN1C(=O)[C@@H]1CCCN1)C(C)C)C(C)C)C(=O)O` [Peptide 1292.17] was tested, and the IC50 [1] was > 30000 nM.
In the case of LPRRGPRLGV, the “B*5101 (Binding Information)” value [1] was 0.0009.
In the case of LPVCQDHLEF, the “B*0702 (Binding Information)” value [4] was 0.0001, the “B*5101 (Binding Information)” value [1] was 0.0002 and the “B*5401 (Binding Information)” value [5] was 0.0003.
In the case of QPEKGGRKPA, the “B*3501 (Binding Information)” value [6] was 0.0001, the “B*5101 (Binding Information)” value [1] was 0.0001 and the “B*5301 (Binding Information)” value [7] was 0.0002.
In the case of SPGALVVGVV, the “B*3501 (Binding Information)” value [6] was 0.0001, the “B*5301 (Binding Information)” value [7] was 0.0001 and the “B*5401 (Binding Information)” value [5] was 0.0003.
TPCTCGSSDL was tested, and the “B*5101 (Binding Information)” value ([1]; HCV B07 supermotif peptides, binding value, no unit or definition in the table) was 0.0002.
For TPLLYRLGAV, the “B*0702 (Binding Information)” value [4] was 0.0120, the “B*3501 (Binding Information)” value [6] was 0.0001 and the “B*5101 (Binding Information)” value [1] was 0.0008. For the same molecule, the “B*5301 (Binding Information)” value [7] was 0.0001 and the “B*5401 (Binding Information)” value [5] was 0.0110.
